These results are taken from patent publication US20200325490A1 (AARHUS UNIVERSITET, published 2020).

In data set [1] the target is T1, Aspergillus ficuum phytase (EC 3.1.3.8), P34752.
T1 chain: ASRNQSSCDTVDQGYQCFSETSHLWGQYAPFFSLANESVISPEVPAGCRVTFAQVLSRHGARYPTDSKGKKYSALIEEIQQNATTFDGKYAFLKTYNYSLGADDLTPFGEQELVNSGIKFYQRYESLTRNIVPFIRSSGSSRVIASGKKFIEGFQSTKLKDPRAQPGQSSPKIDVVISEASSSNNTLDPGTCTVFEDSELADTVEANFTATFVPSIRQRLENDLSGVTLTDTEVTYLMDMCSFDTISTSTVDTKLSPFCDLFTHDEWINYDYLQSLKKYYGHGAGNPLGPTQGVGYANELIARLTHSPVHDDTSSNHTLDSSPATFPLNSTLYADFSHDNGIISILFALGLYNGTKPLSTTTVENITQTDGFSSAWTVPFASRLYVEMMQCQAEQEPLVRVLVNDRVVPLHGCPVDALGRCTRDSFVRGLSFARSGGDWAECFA

Data set [2] addresses wheat TaPAPhy phytase (EC 3.1.3.26).

B1: HvNEP-1 (Hordeum vulgare nepenthesin-1-type aspartic endoprotease), ΔHvNEP-1 with C-terminal His6 tag, expressed in Pichia pastoris KM71H (enzyme)
chain: DADTPKVAMASSGAGSSFRLAAHHDHALSRSDDGFLHVQSRLDNLLPSEANVTTLRPPVASPLDMAFSVVVGLGSGKGRHDYNLKLDASGSLTWVQCKPCNPKQPQRGPLFDPKASSTFQQVAGTSQICHPPYPMEPAGQQCAFHLSGMGGMSVHGYVAMENLTMGPEAMKEFVFGCSHSTGHFNSHGTFAGVAAMGKMPTSLVMQVAARGQTRFSYCLFSGGASRHGFLRFGADVPSRSGLRTTKILPALDAHESQYYVSLVGISLDAKRLTGVRPEMFARQRGGEGGCVVDPGTPLTVLVREAYRVVEDAVWSDLRRNKAERVQREGYGLCVRKTAEIKRHLQSLSLHFAEETARLVVKPEQLFVAVESRLHGAALCLAMRPGERTVIGALQQVDTRFVYDLKDAKLSFASEPCSQDTAGVDHHHHHH
notes: also called HvNEP-1 protease; truncated HvNEP-1
Turning to B1, the values for the residual phytase activity result in data set [1] and in data set [2] were “residual phytase activity of A. ficuum was reduced at phytase: protease ratios of 1:500” and “residual TaPAPhy phytase activity was first reduced at phytase: protease ratios of 1:100”, respectively.
